This is a selection; strong and weak results do not stand in their true shares. Active and inactive are the calls of the source. Cut-off read from the data, not from the text of the source: active = inhibition mostly above about 37% (no sharp cut-off); inactive = mostly below about 20%.

This assay concerns PriA–SSB C-terminal tail interaction (Klebsiella pneumoniae). In words: inhibitors of Klebsiella pneumoniae PriA binding to SSB C-terminal tail, primary screen, biochemical, AlphaScreen (AID 1272365).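 Note: plate controls were negative control peptide for no effect and reference peptide for full effect.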 Particulars: AlphaScreen SSBct-PriA binding, biotinylated peptide; at 33 µM; stronger effect = higher value. In general terms: In Alpha technology, singlet oxygen from a donor bead excites a nearby acceptor bead.
Usually inhibition stands for the change of the read-out against control, counted positive when it falls. `CCN(N=Nc1nonc1N)c1nonc1N`: the inhibition is inactive: 2.77%. In the case of `Nc1cccc2ccc([As](=O)(O)O)cc12` it was inactive: -4.6%; in that of `O=C(O)c1ccccc1[As](=O)(O)O`, inactive: -8.83%.

Consider `CC(=O)Nc1ccc([As](=O)(O)O)cc1`, for which the inhibition is inactive: -4.24%.

As to `CCCC1OP(N)(=O)OCC1CC` (stereo unspecified), the inhibition was inactive: -0.92%. In the case of `O=P(Nc1nc2ccc(Cl)cc2s1)(c1ccccc1)c1ccccc1` it was inactive: -4.1%; in that of `CCOP(=O)(Nc1ccccc1)OCC`, inactive: -3.16%.

With `Cc1cc(SC(NC(=O)c2ccc(F)cc2)C(Cl)(Cl)Cl)ncn1` (stereo unspecified), the inhibition was inactive: -9.15%.

For the molecule `Cc1ccc(NP(=O)(Oc2ccccc2F)Oc2ccccc2F)nc1`, the inhibition is inactive: -6.17%. In the case of `CN(C(=O)Cc1ccc(Cl)c(Cl)c1)[C@H]1CCCC[C@@H]1N1CCCC1` it was inactive: -2.38%; in that of `CC(C)CC(=O)NC(Sc1ccc(Cl)cc1)C(Cl)(Cl)Cl` (stereo unspecified), inactive: -37.1%; in that of `Nc1cc(N)c2nonc2c1[N+](=O)[O-]`, inactive: -3.28%.

Consider `Oc1ccccc1CNc1ccccn1`, for which the inhibition is inactive: -10.8%. In the case of `O=C(NC(Sc1ccncn1)C(Cl)(Cl)Cl)c1ccccc1` (stereo unspecified) it was inactive: -12.2%; in that of `CC(C)C=NNC(=N)N[N+](=O)[O-]`, inactive: -6.64%. In the case of `NC(=O)c1cc([N+](=O)[O-])cc([N+](=O)[O-])c1N` it was inactive: -7.07%; in that of `CN(C(=O)Cc1ccc(Cl)c(Cl)c1)[C@H]1CCCC[C@H]1N1CCCC1`, inactive: -3.11%; in that of `COc1ccccc1OP(=O)(Nc1ccc(C)cn1)Oc1ccccc1OC`, inactive: -4.75%. For `Cc1ccc(OP(=O)(Nc2nccs2)Oc2ccc(C)cc2)cc1`, the inhibition was inactive: -0.21%.

Turning to `Clc1ccc(Cl)c(NC2=NCC(CBr)S2)c1` (stereo unspecified), the inhibition was inactive: -9.52%. In the case of `CN1CCCC(OC(=O)C(c2ccccc2)c2ccccc2)C1` (stereo unspecified) it was inactive: -9.5%; in that of `Nc1ccc([As](=O)(O)c2ccc(N)cc2)cc1`, inactive: 3.59%; in that of `C[N+]1=C2C=CC=CC=C2SC12C([N+](=O)[O-])=CC([N+](=O)[O-])=C[C-]2[N+](=O)[O-]` (stereo unspecified), inactive: 37.7%. In the case of `O=C(CCNCCCl)c1ccccc1` it was inactive: 8%; in that of `CN(C)C(=O)OCCc1n(C)cc[n+]1C`, inactive: 1.1%. As for `CC1CCN(C(=O)Oc2c(Cl)cc(Cl)c3cccnc23)CC1`, the inhibition was inactive: -35.6%. In the case of `COc1ccc(C2=NCC(CBr)S2)cc1` (stereo unspecified) it was inactive: -2.16%; in that of `O=[N+]([O-])c1cccc2n[nH]nc12`, inactive: -30.1%.

`CC(=O)N1C2C3N(C(C)=O)C1C1N(C(C)=O)C(C(N1C(C)=O)N3C(C)=O)N2C(C)=O`: the inhibition is inactive: -2.6%.

As for `Cc1ccc(NP(=O)(Oc2ccccc2)Oc2ccccc2)nc1`, the inhibition is inactive: 6.88%. In the case of `CCc1nc2c(n1)c1c(non1O)c1c2no[n+]1[O-]` it was inactive: 0.44%; in that of `O=[N+]([O-])c1cc([N+](=O)[O-])c(CCNc2ccccc2)c([N+](=O)[O-])c1`, inactive: 34.8%; in that of `CC(C)(C)C(=O)NC(Sc1ccncn1)C(Cl)(Cl)Cl` (stereo unspecified), inactive: 3.21%. In the case of `O=[N+]([O-])c1ncn(CCn2ncnc2[N+](=O)[O-])n1` it was inactive: -2.12%; in that of `O=[N+]([O-])c1cccc(NC2=NCC(CBr)S2)c1` (stereo unspecified), inactive: -5.75%; in that of `COC(=O)C1(C)COP(=O)(Nc2ccccc2)OC1` (stereo unspecified), inactive: -15.3%.

Consider `O=C(O)CNc1ccc([As](=O)(O)O)cc1`, for which the inhibition was inactive: -13.1%.

For `O=P1(N(CCCl)CCCl)OCCCS1` (stereo unspecified), the inhibition is inactive: -8.13%. For `Clc1n[nH]nc1-c1nn[nH]n1`, the inhibition was inactive: -8.39%.

With `O=C(Nc1cc([As](=O)(O)O)ccc1O)c1ccccc1`, the inhibition was inactive: 1.57%. In the case of `CC(=O)NC(SC(=S)N(C)C)C(Cl)(Cl)Cl` (stereo unspecified), the inhibition is inactive: -12.4%.

In the case of `O=[N+]([O-])c1ncn(CCn2cnc([N+](=O)[O-])n2)n1`, the inhibition is inactive: -12.4%. Consider `O=[As](O)(c1ccccc1)c1ccc(O)cc1`, for which the inhibition was inactive: 7.35%. In the case of `O=C1CCCCC1CNCCBr` (stereo unspecified) it was inactive: -8%; in that of `O=[N+]([O-])c1ccc(O)c(C=NNc2ccc([N+](=O)[O-])cc2[N+](=O)[O-])c1`, inactive: 9.07%. As to `Nc1ccc([As](=O)(O)c2ccc([N+](=O)[O-])cc2)cc1`, the inhibition is inactive: 7.06%. In the case of `C(Cc1nn[nH]n1)Cc1nn[nH]n1` it was inactive: 4.26%; in that of `O=C(OC1CN2CCC1CC2)c1cccc(Cl)c1` (stereo unspecified), inactive: -0.05%.

Consider `COc1ccc(N)c([N+](=O)[O-])c1[N+](=O)[O-]`, for which the inhibition was inactive: 8.43%.

With `O=P(Nc1ccccn1)(c1ccc(Br)cc1)c1ccc(Br)cc1`, the inhibition is inactive: -8.92%. In the case of `CN(C)C1(CNC(=O)c2ccc(Cl)c(S(N)(=O)=O)c2)CCCCC1` it was inactive: -13.2%.

Regarding `O=P(Nc1nc2ccccc2s1)(c1ccccc1)c1ccccc1`, the inhibition is inactive: -5.41%. Turning to `CCN(C(=NP(=O)(N1CCOCC1)N1CCOCC1)N1CCOCC1)c1ccc(OC)cc1`, the inhibition was inactive: -4%.

In the case of `C[C@H]1OP(=O)(Oc2ccccc2)[C@H](O)[C@H](O)[C@H]1N=[N+]=[N-]` (stereo partly specified), the inhibition is inactive: -0.15%. In the case of `CC(C)C(=O)NC(Sc1ccccc1)C(Cl)(Cl)Cl` (stereo unspecified) it was inactive: -27%; in that of `O=P(Nc1nccs1)(c1ccccc1)c1ccccc1`, inactive: -16.6%; in that of `CCNC(=S)N=C(N)N[N+](=O)[O-]`, inactive: -4.26%. On to `CC(C)=NNC(=N)N[N+](=O)[O-]`, for which the inhibition was inactive: -9.89%. In the case of `c1nnnn1CCn1cnnn1` it was inactive: -7.05%; in that of `NC(=NO)c1c(N)no[n+]1[O-]`, inactive: 0.24%; in that of `N#C/C(=C\c1ccc(N(CCBr)CCBr)cc1)C(N)=O`, inactive: -6.39%. `CC(=O)c1ccc(N2CC2c2ccncc2)cc1` (stereo unspecified): the inhibition was inactive: -5.93%.

As for `COC(=O)C1(C)COP(=O)(NCc2ccccc2)OC1` (stereo unspecified), the inhibition was inactive: -9.31%. In the case of `Cc1ccccc1CN(C)C(=O)COC(=O)C(O)(c1ccccc1)c1ccccc1` it was inactive: 1.29%; in that of `C[C@@H]1C=CCP(=O)(Oc2ccccc2)O1` (stereo partly specified), inactive: -14.9%. In the case of `C[C@H]1OP(=O)(Oc2ccccc2)C[C@@H]2O[C@@H]21` (stereo partly specified) it was inactive: -7.38%.

`CCOc1ccc(Nc2c([N+](=O)[O-])cc(C(F)(F)F)cc2[N+](=O)[O-])c([N+](=O)[O-])c1`: the inhibition is inactive: 5%. In the case of `CC(=O)Nc1ccc([As](=O)(O)O)c(O)c1` it was inactive: -5.21%.

For the molecule `CC(=O)Nc1ccc(Oc2c([N+](=O)[O-])cc([N+](=O)[O-])cc2[N+](=O)[O-])cc1`, the inhibition was inactive: -11.1%. In the case of `O=P1(Nc2nc3ccc(Cl)cc3s2)COc2ccccc2O1` (stereo unspecified) it was inactive: -8.11%; in that of `CCOc1ccc(C2=NCC(CBr)S2)cc1` (stereo unspecified), inactive: -3.32%. As for `CCc1cc(O)c([N+](=O)[O-])c(C)c1[N+](=O)[O-]`, the inhibition is inactive: -4.57%. For the molecule `CC(C)(C)C(=O)NC(Sc1ccccc1)C(Cl)(Cl)Cl` (stereo unspecified), the inhibition is inactive: -24.7%.

As for `COC(=O)c1cc2c(s1)N=C(c1ccccc1)N(C)P2(=O)N1CCOCC1` (stereo unspecified), the inhibition is inactive: 1.51%. In the case of `CC(=O)NC(SC(=S)N(CC(C)C)CC(C)C)C(Cl)(Cl)Cl` (stereo unspecified) it was inactive: 15.3%; in that of `Cc1ccc(OP(=O)(Nc2ccccn2)Oc2ccc(C)cc2)cc1`, inactive: -25.8%; in that of `O=C(OC1CN2CCC1CC2)c1ccccc1` (stereo unspecified), inactive: -10.3%.

With `CCC(=O)N1C2C3N(C(=O)CC)C1C1N(C(=O)CC)C(C(N1C(=O)CC)N3C(=O)CC)N2C(=O)CC`, the inhibition is inactive: -6.34%. Regarding `Cc1ccccc1OP(=O)(Nc1ccccn1)Oc1ccccc1C`, the inhibition is inactive: -1.29%. In the case of `CC(NC(=O)COC(=O)C(O)(c1ccccc1)c1ccccc1)c1ccccc1` (stereo unspecified) it was inactive: -6.72%; in that of `CN(C)C(=O)Oc1noc2ccccc12`, inactive: -9.16%. Turning to `O=c1c2cc([N+](=O)[O-])ccc2[nH]c2c([N+](=O)[O-])cc([N+](=O)[O-])cc12`, the inhibition is inactive: -7.91%.

As for `O=C(NC1CCS(=O)(=O)C1)NP(=S)(Oc1ccccc1)Oc1ccccc1` (stereo unspecified), the inhibition was inactive: -31.8%. On to `Cc1cc(NC(=O)COC(=O)C2(O)c3ccccc3-c3ccccc32)no1`, for which the inhibition is inactive: -2%. In the case of `c1ccc(-c2nn[nH]n2)c(-c2nn[nH]n2)c1` it was active: 72.8%. As to `Cc1ccc(NP(=O)(Oc2cccc(C)c2)Oc2cccc(C)c2)nc1`, the inhibition was inactive: -20.9%.

As for `O=P1(N(CCCl)CCCl)OCCC2CCCCN21` (stereo unspecified), the inhibition is inactive: -10.5%.

Regarding `NC(=O)Nc1ccc([As](=O)(O)O)cc1`, the inhibition was inactive: -19.3%. In the case of `CN(C)C(=O)c1cc([N+](=O)[O-])cc2c1-c1c(cc([N+](=O)[O-])cc1[N+](=O)[O-])C2=O` it was inactive: 9.29%; in that of `O=[N+]([O-])c1ccc2c(c1)nnn2O`, inactive: -6.95%; in that of `CN(C(=O)Cc1ccc(Cl)c(Cl)c1)[C@H]1CC[C@@]2(CCCO2)C[C@@H]1N1CCCC1`, inactive: -9.18%. With `Cc1ccc(NC(=NP(=O)(N2CCOCC2)N2CCOCC2)N2CCOCC2)cc1`, the inhibition is inactive: -9.32%. As for `N#CCCN(C(=O)COC(=O)C(O)(c1ccccc1)c1ccccc1)c1ccc(F)cc1`, the inhibition was inactive: -5.45%. In the case of `CCOP1(=S)c2c(C)nn(CCC#N)c2N=C(c2ccc(F)cc2)N1C` (stereo unspecified) it was inactive: -5.64%; in that of `CN(C(=O)Cc1ccccc1)[C@@H]1CC[C@]2(CCCO2)C[C@H]1N1CCCC1`, inactive: -10%; in that of `CS(=O)(=O)c1cc([N+](=O)[O-])c2no[n+]([O-])c2c1`, inactive: 2.17%. As for `CCOP1(=S)c2c(C)nn(CCC#N)c2N=C(c2ccccc2F)N1C` (stereo unspecified), the inhibition was inactive: -7.52%. In the case of `O=P(Nc1nccs1)(c1ccccc1)c1nc2ccccc2s1` (stereo unspecified) it was inactive: -8.38%; in that of `O=P(Nc1nccs1)(Oc1ccccc1)Oc1ccccc1`, inactive: -0.47%; in that of `CC(=O)NC(SC1=NCCS1)C(Cl)(Cl)Cl` (stereo unspecified), inactive: -24%. As to `Nc1ccccc1[As](=O)(O)c1ccccc1`, the inhibition was inactive: -1.19%.

Values taken from PubChem BioAssay AID1272365 (Small Molecule Screening Facility, UW Madison, 2020).
